In PubChem BioAssay AID619 (University of Pittsburgh Molecular Library Screening Center, 2007) one finds inhibition data, which are given here for 33 molecules.

Sequences of proteins named here, by UniProt entry; tags and fusion partners are left off.
UniProt P53350, whole entry, looked up: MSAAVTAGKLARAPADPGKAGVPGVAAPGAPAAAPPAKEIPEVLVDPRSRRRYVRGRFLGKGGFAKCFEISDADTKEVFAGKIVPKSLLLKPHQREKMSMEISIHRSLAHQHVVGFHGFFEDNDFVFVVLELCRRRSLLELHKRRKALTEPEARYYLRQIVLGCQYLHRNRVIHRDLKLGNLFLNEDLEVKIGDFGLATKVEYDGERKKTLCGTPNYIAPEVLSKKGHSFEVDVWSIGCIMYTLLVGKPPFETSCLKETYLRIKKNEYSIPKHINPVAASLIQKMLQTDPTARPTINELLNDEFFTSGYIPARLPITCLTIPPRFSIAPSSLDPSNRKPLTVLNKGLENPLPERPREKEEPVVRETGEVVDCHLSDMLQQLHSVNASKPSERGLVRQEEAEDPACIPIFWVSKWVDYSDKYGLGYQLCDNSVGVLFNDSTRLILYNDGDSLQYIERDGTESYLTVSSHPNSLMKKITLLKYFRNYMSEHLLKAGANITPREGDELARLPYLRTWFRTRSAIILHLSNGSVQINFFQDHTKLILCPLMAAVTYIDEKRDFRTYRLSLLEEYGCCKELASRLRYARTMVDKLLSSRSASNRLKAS

Molecules are shown by their SMILES. This is a selection; strong and weak results do not stand in their true shares. The source made the active and inactive calls.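 Rule for the calls: active = inhibition of 50% or more in the single-concentration screen; inactive = inhibition below 50%.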

The assay concerns the target Serine/threonine-protein kinase PLK1 (Homo sapiens) (UniProt P53350). Kind of assay: human PLK1 kinase inhibitors, primary screen, biochemical, TR-FRET (AID 619).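 Note: 0% = DMSO max control and 100% = H-89 dihydrochloride min control.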 The settings on record: recombinant PLK1 kinase, TR-FRET peptide phosphorylation; at 10 µM; stronger effect = higher value. For orientation: In TR-FRET formats the signal depends on donor and acceptor labels being close together.
Take `O=C(OC1CN2CCC1CC2)c1cccc(Cl)c1` (stereo not drawn): the inhibition (commonly the change of the read-out against control, counted positive when it falls) was inactive: -1.54%.
Under `c1nnnn1CCn1cnnn1` stands inactive: -8.3%.
Then `O=P(Nc1nccs1)(c1ccccc1)c1ccccc1`, with inactive: 7.52%; and `O=P1(Nc2nc3ccc(Cl)cc3s2)COc2ccccc2O1` (stereo not drawn), with inactive: -7.38%.
Then `COC(=O)c1cc2c(s1)N=C(c1ccccc1)N(C)P2(=O)N1CCOCC1` (stereo not drawn), with inactive: -6.93%.
For the molecule `CCC(=O)N1C2C3N(C(=O)CC)C1C1N(C(=O)CC)C(C(N1C(=O)CC)N3C(=O)CC)N2C(=O)CC`, the inhibition was inactive: -3.6%.
Under `CCOC(=O)NC(Sc1ccccc1)C(Cl)(Cl)Cl` (stereo not drawn) stands inactive: -11.3%; under `CCOP(=O)(Nc1ccccc1)OCC`, inactive: -16.4%; under `CC(C)CC(=O)NC(Sc1ccc(Cl)cc1)C(Cl)(Cl)Cl` (stereo not drawn), inactive: -9.28%.
Under `Cc1c2non([O-])c-2c(C)[n+](=O)[n+]1[O-]` stands inactive: -6.35%; under `Oc1ccccc1CNc1ccccn1`, inactive: -6.93%.
Under `CN1CCCC(OC(=O)C(c2ccccc2)c2ccccc2)C1` (stereo not drawn) stands inactive: -5.77%; under `CC1CCN(C(=O)Oc2c(Cl)cc(Cl)c3cccnc23)CC1`, inactive: -1.49%.
For `O=[N+]([O-])c1cccc2n[nH]nc12`, the inhibition was inactive: -9.5%.
As to `CC(=O)N1C2C3N(C(C)=O)C1C1N(C(C)=O)C(C(N1C(C)=O)N3C(C)=O)N2C(C)=O`, the inhibition is inactive: -9.23%.
Then `CCc1nc2c(n1)c1c(non1O)c1c2no[n+]1[O-]`, with inactive: 12.2%; and `CCC(C)N(CC(C)C)C(=S)SC(NC(C)=O)C(Cl)(Cl)Cl` (stereo not drawn), with inactive: -10%.
Then `O=C(COc1ccccc1)OC1CN2CCC1CC2` (stereo not drawn), with inactive: -6.71%; and `COP1(=S)c2c(C)nn(CCC#N)c2N=C(c2ccc(F)cc2)N1C` (stereo not drawn), with inactive: -9.23%.
Then `O=C(OC1CN2CCC1CC2)C12CC3CC(CC(C3)C1)C2` (stereo not drawn), with inactive: -3.78%; and `CCN(CC)C(=S)SC(NC=O)C(Cl)(Cl)Cl` (stereo not drawn), with inactive: -2.58%.
Turning to `ClCCSc1nnc(-c2cccnc2)o1`, the inhibition is inactive: -7.85%.
In the case of `O=[N+]([O-])c1ccc2c(c1)nnn2O`, the inhibition is inactive: -9.67%.
Under `CCOP1(=S)c2c(C)nn(CCC#N)c2N=C(c2ccc(F)cc2)N1C` (stereo not drawn) stands inactive: -8.06%.
Then `CCOP1(=S)c2c(C)nn(CCC#N)c2N=C(c2ccccc2F)N1C` (stereo not drawn), with inactive: -9.8%; and `Cc1cccc(OCC(=O)OC2CN3CCC2CC3)c1` (stereo not drawn), with inactive: -7.77%.
Then `CC1(CBr)Cn2c(nc3ccccc3c2=O)S1` (stereo not drawn), with inactive: -14.5%; and `Clc1n[nH]nc1-c1nn[nH][15n]1`, with inactive: -6.1%.
Regarding `O=P1(Nc2ccccn2)COc2ccccc2OC1`, the inhibition is inactive: -15.2%.
Under `O=P1(Nc2ccc(Br)cn2)COc2ccccc2OC1` stands inactive: 13.5%.
Then `Cc1ccc(OCC(=O)OC2CN3CCC2CC3)cc1` (stereo not drawn), with inactive: -10.7%; and `O=P1(Nc2ncccn2)COc2ccccc2OC1`, with inactive: -17.7%; and `Cc1nn(-c2ccccc2)c2c1P(=O)(N1CCOCC1)N(C)C(c1ccccc1)=N2` (stereo not drawn), with inactive: -12.5%.
